Assay: Release study of agents from the gel
Assay type: physicochemical
[1] = release from hydrogel composition #4, 10 h in PBS

Substance: Bovine serum albumin [BSA]
- amount released [1]: 2.78 mg
- percent release [1]: 2.2%
- concentration in supernatant (release from hydrogel composition #4, 10 hours in PBS at room temperature): 111 µg/mL
